scFv variants of Ab-14 (light chain) against a SARS-CoV-2 spike peptide

The target is the same throughout: PDVDLGDISGINAS, from the HR2 region of SARS-CoV-2 spike.

The variants keep the heavy chain, the linker and the frameworks of Ab-14 (scFv order VH, the linker GGGGSGGGGSGGGGS, VL).
VH: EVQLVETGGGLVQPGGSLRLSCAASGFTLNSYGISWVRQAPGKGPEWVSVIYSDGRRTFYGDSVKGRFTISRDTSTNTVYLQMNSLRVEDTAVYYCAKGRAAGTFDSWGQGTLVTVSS
VL: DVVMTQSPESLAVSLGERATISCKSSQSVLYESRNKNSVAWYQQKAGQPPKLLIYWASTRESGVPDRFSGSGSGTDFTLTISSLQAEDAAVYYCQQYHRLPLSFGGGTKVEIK

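The parent was found by panning a naive human phage display library on the peptide. The library (AAYL50) carries one to three amino acid substitutions per variant, with no insertions or deletions. The scFvs were displayed on barcoded MATa yeast, the peptide on MATalpha yeast. After mating in shaken culture at 30 °C for 16 h, diploids were selected and their barcode pairs sequenced. Each replicate has its own calibration line, from reference interactions of the BCL2 family. Each pool was mated in three replicate cultures.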

Substitutions are numbered in sequence along the VL above, starting at 1 (not Kabat). Every variant below is changed at S25 of the VL (sequential numbering). The Kd shown is the geometric mean over detected replicates; a lower Kd is a better binder. Where no diploid with the target was found in any replicate, the entry reads "no signal": below detection, most likely a poor binder, though not proof of it.

- S25L+Y31V+T59G = 4.6 nM (3 of 3 replicates)
- K24Q+S25V+Y31N = 2.4 nM (3 of 3 replicates)
- S25R+V39F+Q95E = 130 µM (1 of 3 replicates)
- S25M+Q27H = 250 nM (3 of 3 replicates)
- S25I+V39A+A40K = 2.4 µM (1 of 3 replicates)
- S25C+S33R = 17 nM (3 of 3 replicates)
- S25F+S26P = 960 pM (3 of 3 replicates)
- S25Y+V29P+L102W = 44 nM (3 of 3 replicates)
- K24I+S25C+L100N = no signal (0 of 3 replicates)
- S25Y+L102P = 4.9 µM (1 of 3 replicates)
- S25H+W56H+E61K = 4.8 nM (3 of 3 replicates)
- S25Y+L30P+N37C = 17 nM (3 of 3 replicates)
- S25N+L102S = 90 nM (3 of 3 replicates)
- S25R+R34E+H98D = 19 nM (3 of 3 replicates)
- S25W+Y31Q+K36F = 4.5 nM (3 of 3 replicates)
- S25N+K36F+Q96A = 780 nM (3 of 3 replicates)
- K24N+S25N+Y31M = 69 nM (3 of 3 replicates)
- S25C+S26Q = 3.1 nM (3 of 3 replicates)
- S25P+K36W+R60V = no signal (0 of 3 replicates)
- S25W+S38A+L102K = 12 nM (3 of 3 replicates)
- S25W+S33Q = 7.0 nM (3 of 3 replicates)
- S25N+H98I = 56 µM (1 of 3 replicates)
- S25P+L30V+E61Y = 120 nM (3 of 3 replicates)
- S25I+Y31I+P101D = no signal (0 of 3 replicates)
- S25N+V29P+N37G = 1.1 µM (3 of 3 replicates)
- S25W+V39D+S62P = 110 µM (2 of 3 replicates)
- S25H+V29S = 5.2 nM (3 of 3 replicates)
- S25L+A57S+Y97P = 3.2 µM (3 of 3 replicates)
- S25D+S26M = 20 nM (3 of 3 replicates)
- S25Q+S38P+Q95G = 360 nM (3 of 3 replicates)
- S25M+N35L+L100P = 130 µM (2 of 3 replicates)
- S25P+S38K+V39A = 7.3 µM (1 of 3 replicates)

The opening 5 entries, copied out:

{"changes": "S25L+Y31V+T59G", "Kd (apparent)": "4.6 nM", "seen in": "3 of 3"}
{"changes": "K24Q+S25V+Y31N", "Kd (apparent)": "2.4 nM", "seen in": "3 of 3"}
{"changes": "S25R+V39F+Q95E", "Kd (apparent)": "130 µM", "seen in": "1 of 3"}
{"changes": "S25M+Q27H", "Kd (apparent)": "250 nM", "seen in": "3 of 3"}
{"changes": "S25I+V39A+A40K", "Kd (apparent)": "2.4 µM", "seen in": "1 of 3"}

Nonspecific signal, from three strains lacking the peptide, appeared in 18% of pairings of library AAYL50, centred on 15 µM (5% of these signals below 970 nM); values are not corrected for it.

Reference: Engelhart et al. 2022, doi:10.1038/s41597-022-01779-4. File: FLAb, binding data.